Binding of CDR-mutated scFvs to a peptide of the spike HR2 region

Values reported by Engelhart et al. 2022, doi:10.1038/s41597-022-01779-4 (FLAb copy).

Target peptide (SARS-CoV-2 spike, HR2 region): PDVDLGDISGINAS

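Phage display of a naive human antibody library on the peptide gave the parent. Variants in AAYL49 differ from the parent at up to three CDR positions; double and triple changes were sampled at random. AlphaSeq pools MATa yeast showing the antibodies with MATalpha yeast showing the peptide. The frequency of each diploid, read from paired DNA barcodes, reflects how well the two displayed proteins bind. Scores were corrected for input abundance and mapped to Kd with protein pairs of known affinity run in the same pool. Each pool was mated in three replicate cultures.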

Ab-14 is the parent antibody, in scFv form: VH, then a 15-residue (Gly4Ser)3 linker, then VL. The light chain is unchanged in all variants.
VH: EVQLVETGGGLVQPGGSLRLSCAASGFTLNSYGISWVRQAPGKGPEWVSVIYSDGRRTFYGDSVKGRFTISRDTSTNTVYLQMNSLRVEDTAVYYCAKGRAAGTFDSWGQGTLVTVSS
VL: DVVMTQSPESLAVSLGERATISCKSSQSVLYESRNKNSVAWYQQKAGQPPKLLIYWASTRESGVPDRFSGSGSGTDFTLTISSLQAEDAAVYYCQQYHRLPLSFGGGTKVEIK

Variants are written as CDR1, CDR2 and CDR3 of the heavy chain (limits as in the source). Parent: GFTLNSYGIS, VIYSDGRRTFYGDSVK, GRAAGTFDS. Values are log10 of the apparent Kd in nM; lower means stronger binding. A mean of the replicates is given; it leaves out those without a signal. Where no diploid with the target was found in that replicate, the entry reads "nd": below detection, most likely a poor binder, though not proof of it. Nonspecific signal, from three strains lacking the peptide, appeared in 15% of pairings of library AAYL49, centred on 4.06 (5% of these signals below 2.83); values are not corrected for it. The control count says in how many pairings with the empty strains this scFv gave a signal.

For GFTYNSYDIS | VIMSDGRRTFYGDSVK | GRAAGTFDS, the assay gave nd, nd, 5.11 (controls 3 of 9).
For GFTLNSYDIS | VIYSDGRRTFVGDSVK | GRACGTFDS, the assay gave nd, nd, nd (controls 0 of 9).
For GFKLHSYGIS | VIYSDGRRTFYGDSVK | GRAAGEFDS, the assay gave 3.42, 4.51, nd (mean 3.97; controls 4 of 9).
For GFTLNSYGIS | VIYSDGRRTFYGDSEC | WRAAGTFDS, the assay gave nd, 3.45, 3.54 (mean 3.49; controls 1 of 9).
For GFTLNSYGIS | VIYSDGRYTFYGDSVK | GRAAGTEDS, the assay gave nd, nd, nd (controls 2 of 9).
For GFTLNSKGIS | VIYSDGRRIFYGDSVK | GRHAGTFDS, the assay gave 4.52, 5.11, nd (mean 4.82; controls 1 of 9).
For GFTLNSYGGS | YIYTDGRRTFYGDSVK | GRAAGTFDS, the assay gave 4.04, nd, 6.59 (mean 5.31; controls 2 of 9).
For GFTLNSYGIS | VIYSDGIRMFYGDSVK | GRAAGTFDS, the assay gave 1.54, 1.79, 1.72 (mean 1.68; controls 4 of 9).
For GFTLNSYGFS | VIYSDGARTFYYDSVK | GRAAGTFDS, the assay gave nd, nd, nd (controls 0 of 9).
For HFTLSSYGIS | VIWSDGRRTFYGDSVK | GRAAGTFDS, the assay gave nd, 4.09, 3.76 (mean 3.93; controls 2 of 9).
For GFDMNSYGIS | VIYSDGRRTFYGDSVK | GRAAGTFDP, the assay gave 4.43, 4.34, nd (mean 4.39; controls 2 of 9).
For GNTTNKYGIS | VIYSDGRRTFYGDSVK | GRAAGTFDS, the assay gave 2.83, nd, nd (controls 2 of 9).
For GFTLNSYGIS | VIYSDGRWTFYGISVK | QRAAGTFDS, the assay gave nd, nd, nd (controls 0 of 9).
For GFTLNSYGIS | VIYSDGRRTFYVDSVW | GRAAGLFDS, the assay gave 2.32, 2.17, 2.14 (mean 2.21; controls 1 of 9).
For GFMLNSYGIS | VIYSDGWRTFYGDSVK | PRAAGTFDS, the assay gave nd, nd, nd (controls 0 of 9).
For GFTLNSIGIS | VIYSDHRRTFYGDSVK | GRAADTFDS, the assay gave nd, nd, nd (controls 1 of 9).
For GFTLNSYGIS | VIYSDGRRTFYGDMVK | GRHAGTFDS, the assay gave 1.03, 1.39, 1.67 (mean 1.36; controls 0 of 9).
For GFTLNSYGIS | VIYSDWRRTFYGDSIK | ARAAGTFDS, the assay gave nd, nd, nd (controls 0 of 9).
For GFTLNSYGIP | VIYSDGRRTFYGDSVK | GRAAFTQDS, the assay gave nd, nd, nd (controls 1 of 9).
For GFTLNSYGIS | VIYSDGRRTVYGDSVK | GRARGTFDS, the assay gave nd, nd, nd (controls 0 of 9).
For GFFLNSYGIS | VRYSDGRRTFYGDPVK | GRAAGTFDS, the assay gave 4.81, 4.63, 4.50 (mean 4.65; controls 4 of 9).
For GFTLNKYGIS | VIYSDGRRRFNGDSVK | GRAAGTFDS, the assay gave 4.82, nd, nd (controls 6 of 9).
For GFTDNSYGYS | VIYSDGRRTFYGDSVK | GLAAGTFDS, the assay gave nd, nd, nd (controls 1 of 9).
For GFTHNSYFIS | VIYCDGRRTFYGDSVK | GRAAGTFDS, the assay gave nd, nd, nd (controls 0 of 9).
For QFTLNSYGMS | VIYSDGRSTFYGDSVK | GRAAGTFDS, the assay gave nd, nd, nd (controls 3 of 9).
For GFTLNSYGIS | VISSDGRRTFYIDSVK | GKAAGTFDS, the assay gave 1.88, 1.78, 2.00 (mean 1.88; controls 1 of 9).
For GFWLNSYGIS | VIYSDGRRTAYGDSVK | GRNAGTFDS, the assay gave -0.14, 0.12, -0.10 (mean -0.04; controls 3 of 9).
For GFTLNSNGIS | VIYSDGRRTFYGDSVK | GRSAGTFDS, the assay gave 0.85, 1.10, 0.98 (mean 0.98; controls 1 of 9).
For GFTLNSYGIS | VIYSPGRRTFYGDSVK | GRAAGTFVS, the assay gave nd, nd, nd (controls 1 of 9).
For GFTLNSYGIS | VIYDDGIRTFYGDSVK | GRAAGVFDS, the assay gave nd, nd, nd (controls 2 of 9).
For GFTLNSDGIS | VALSDGRRTFYGDSVK | GRAAGTFDS, the assay gave nd, nd, nd (controls 0 of 9).
For GFTCNSYGIS | VIYADGRRTFYGDSVK | GRAAGTFDS, the assay gave 3.57, nd, nd (controls 0 of 9).
For KFTLNSYGIS | VIYSDGRRTFYGDSVK | GDAHGTFDS, the assay gave nd, nd, nd (controls 1 of 9).
For GFTLNSYGIS | VIYSDGRRTFYGDEWK | GRVAGTFDS, the assay gave 3.60, 2.75, 3.70 (mean 3.35; controls 1 of 9).
For GFTWNSYGIQ | VIYSDGRRTFYGDSVK | GRAAGTFDF, the assay gave nd, nd, nd (controls 0 of 9).
For GFTLNSYGIS | VIYSDGRRTFDGDSVK | DRAAGTADS, the assay gave nd, 3.06, nd (controls 2 of 9).
For GFTLNSYGIS | LIYSDVRRTFYGDSVK | GRFAGTFDS, the assay gave nd, nd, nd (controls 0 of 9).
For GFTLNSYGIP | VIYSDGRRTAYGDSVK | GRAATTFDS, the assay gave nd, nd, 2.97 (controls 1 of 9).
For GFTLNSYGIS | VMYSDGRRTFDGDSVK | HRAAGTFDS, the assay gave nd, 3.86, 5.90 (mean 4.88; controls 3 of 9).
For GFTLNSYGIS | VVYSDGRRTGYLDSVK | GRAAGTFDS, the assay gave nd, 4.05, nd (controls 4 of 9).
For GFTLNSYGIS | VIYSDGEFTFYGDSVK | GRAAGTFDS, the assay gave nd, nd, nd (controls 2 of 9).
For GSTLNSYGIS | VIYSDGRRTFYGDSVK | NHAAGTFDS, the assay gave nd, nd, nd (controls 2 of 9).
For GFTLNSYGIS | VGYSDGRRTFYGDSVK | GRAAGTSDW, the assay gave nd, nd, nd (controls 0 of 9).
For HETLNSYGIS | VIYSAGRRTFYGDSVK | GRAAGTFDS, the assay gave nd, 3.58, nd (controls 2 of 9).
For GFTLNSYGCS | VIYSDGYRTFYGDSVK | GRAAGTFCS, the assay gave nd, nd, nd (controls 1 of 9).
For GFTLNSYGIS | VIYGDGRRTFYGDSVK | GRRAGTFDS, the assay gave 2.50, 2.57, 2.91 (mean 2.66; controls 1 of 9).
For GFTLNQYGIF | VLYSDGRRTFYGDSVK | GRAAGTFDS, the assay gave nd, nd, nd (controls 0 of 9).

The first 7 variants above that were never detected:

The variant GFTLNSYDIS | VIYSDGRRTFVGDSVK | GRACGTFDS gave nd, nd, nd (controls 0 of 9).
The variant GFTLNSYGIS | VIYSDGRYTFYGDSVK | GRAAGTEDS gave nd, nd, nd (controls 2 of 9).
The variant GFTLNSYGFS | VIYSDGARTFYYDSVK | GRAAGTFDS gave nd, nd, nd (controls 0 of 9).
The variant GFTLNSYGIS | VIYSDGRWTFYGISVK | QRAAGTFDS gave nd, nd, nd (controls 0 of 9).
The variant GFMLNSYGIS | VIYSDGWRTFYGDSVK | PRAAGTFDS gave nd, nd, nd (controls 0 of 9).
The variant GFTLNSIGIS | VIYSDHRRTFYGDSVK | GRAADTFDS gave nd, nd, nd (controls 1 of 9).
The variant GFTLNSYGIS | VIYSDWRRTFYGDSIK | ARAAGTFDS gave nd, nd, nd (controls 0 of 9).

Parent in this assay: reference entry 0.65, copy in this library 4.11 (one replicate of three).